Reference: patent publication US8057659B2, “Detection of analytes in a dual-mediator electrochemical test strip” (AgaMatrix, Inc., priority 2006, dated 2011)

Conditions: PF6 salt of the complex

[Os(MeBpy)2(Im)2]^2+/3+
solubility: less than 1 mM
